Molecular target: BmDHFR (Brugia malayi, UniProt A0A4E9FIQ4)
Experiment: biochemical
Experimental: Compounds (-)-epicatechin, (-)-epicatechin gallate, and vitexin were tested as inhibitors of WbDHFR and BmDHFR. The compounds (-)-epicatechin and (-)-epicatechin gallate were synthesized as described previously. […] Disappearance of DHF and NADPH was observed by measuring absorbance at 340 nm to measure the DHFR activity in a SpectraMax M3 microplate reader. […] All experiments were completed in triplicate.
A linear equation was fitted to the data at each substrate concentration. […] The KI values for BmDHFR in Table 1 were obtained using the Cheng-Prusoff Equation [18]. […] Inhibitor structures are shown in supporting information (S2 Fig).

In the case of `CN(Cc1cnc2nc(N)nc(N)c2n1)c1ccc(C(=O)N[C@@H](CCC(=O)O)C(=O)O)cc1` [Methotrexate, methotrexate], the Ki is reported as under 0.5 nM, the IC50 (IC50 BmDHFR, pH 6.0, 100 μM NADPH, 50 μM DHF, 40 nM BmDHFR, average of triplicates ± S.D.) is reported as 2.2 ± 1.4 nM and the IC50 (IC50 against BmDHFR Average, average of three trials) is reported as 2.21 nM. The IC50 (IC50 against BmDHFR Trial 1, individual trial) was 1.02 nM, the IC50 (IC50 against BmDHFR Trial 2, individual trial) was 1.93 nM and the IC50 (IC50 against BmDHFR Trial 3, individual trial) was 3.68 nM.

From paper PMC5963757, “Expression, purification, and inhibition profile of dihydrofolate reductase from the filarial nematode Wuchereria bancrofti” (PLoS ONE, 2018)
